Laboratory results as given in patent publication US10793549B2, “Sulfuryl-substituted benzoheterocyclic derivative, preparation method and medical use thereof” (SHANGHAI HAIYAN PHARMACEUTICAL TECHNOLOGY CO., LTD., priority 2016, dated 2020).

By UniProt entry, the sequences of proteins in these tests, tags left out.
UniProt Q15910, whole entry Y641F: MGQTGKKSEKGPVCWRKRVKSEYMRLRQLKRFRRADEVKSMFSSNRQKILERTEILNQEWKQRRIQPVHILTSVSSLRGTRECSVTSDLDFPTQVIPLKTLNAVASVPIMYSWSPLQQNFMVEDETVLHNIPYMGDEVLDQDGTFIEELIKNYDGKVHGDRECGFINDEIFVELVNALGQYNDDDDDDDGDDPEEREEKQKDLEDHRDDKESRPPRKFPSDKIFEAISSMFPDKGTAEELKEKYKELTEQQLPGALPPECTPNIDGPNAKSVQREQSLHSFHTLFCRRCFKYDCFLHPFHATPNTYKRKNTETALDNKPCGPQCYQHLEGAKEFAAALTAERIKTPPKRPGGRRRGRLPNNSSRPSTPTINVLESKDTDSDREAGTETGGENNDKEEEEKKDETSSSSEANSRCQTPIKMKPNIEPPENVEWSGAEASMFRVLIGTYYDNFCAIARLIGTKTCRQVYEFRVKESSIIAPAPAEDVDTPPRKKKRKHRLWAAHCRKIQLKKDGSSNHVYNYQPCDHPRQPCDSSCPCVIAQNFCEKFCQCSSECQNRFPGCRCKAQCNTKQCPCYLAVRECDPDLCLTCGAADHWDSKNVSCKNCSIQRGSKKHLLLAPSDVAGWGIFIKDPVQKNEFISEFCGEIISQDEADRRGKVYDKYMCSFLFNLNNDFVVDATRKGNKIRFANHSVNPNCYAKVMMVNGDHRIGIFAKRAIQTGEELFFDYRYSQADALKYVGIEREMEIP
UniProt Q6ZN18, whole entry partner: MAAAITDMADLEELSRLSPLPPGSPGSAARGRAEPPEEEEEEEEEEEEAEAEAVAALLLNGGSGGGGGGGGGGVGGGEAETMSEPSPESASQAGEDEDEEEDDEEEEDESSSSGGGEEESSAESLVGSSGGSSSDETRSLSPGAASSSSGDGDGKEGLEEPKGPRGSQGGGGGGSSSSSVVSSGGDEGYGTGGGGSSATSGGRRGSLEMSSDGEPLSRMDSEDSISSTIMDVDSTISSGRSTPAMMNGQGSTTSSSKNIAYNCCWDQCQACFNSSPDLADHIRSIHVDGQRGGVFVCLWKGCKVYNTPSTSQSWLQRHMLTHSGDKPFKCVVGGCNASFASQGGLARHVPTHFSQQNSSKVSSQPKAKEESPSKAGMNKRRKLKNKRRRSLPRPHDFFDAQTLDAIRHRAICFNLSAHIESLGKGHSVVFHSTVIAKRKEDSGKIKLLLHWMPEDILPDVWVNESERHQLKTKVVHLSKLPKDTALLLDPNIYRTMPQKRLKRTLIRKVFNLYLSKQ
UniProt Q09028, whole entry partner: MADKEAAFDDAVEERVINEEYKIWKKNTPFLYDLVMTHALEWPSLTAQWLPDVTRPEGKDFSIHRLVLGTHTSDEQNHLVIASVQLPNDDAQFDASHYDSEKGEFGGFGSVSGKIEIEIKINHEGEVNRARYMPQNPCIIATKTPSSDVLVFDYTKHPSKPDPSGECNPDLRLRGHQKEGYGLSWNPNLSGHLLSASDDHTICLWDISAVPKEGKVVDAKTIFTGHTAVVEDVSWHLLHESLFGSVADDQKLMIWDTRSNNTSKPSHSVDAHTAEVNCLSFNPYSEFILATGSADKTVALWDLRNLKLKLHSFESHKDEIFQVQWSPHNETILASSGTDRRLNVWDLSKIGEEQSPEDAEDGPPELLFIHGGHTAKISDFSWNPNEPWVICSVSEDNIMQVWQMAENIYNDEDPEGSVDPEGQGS
UniProt O75530, whole entry partner: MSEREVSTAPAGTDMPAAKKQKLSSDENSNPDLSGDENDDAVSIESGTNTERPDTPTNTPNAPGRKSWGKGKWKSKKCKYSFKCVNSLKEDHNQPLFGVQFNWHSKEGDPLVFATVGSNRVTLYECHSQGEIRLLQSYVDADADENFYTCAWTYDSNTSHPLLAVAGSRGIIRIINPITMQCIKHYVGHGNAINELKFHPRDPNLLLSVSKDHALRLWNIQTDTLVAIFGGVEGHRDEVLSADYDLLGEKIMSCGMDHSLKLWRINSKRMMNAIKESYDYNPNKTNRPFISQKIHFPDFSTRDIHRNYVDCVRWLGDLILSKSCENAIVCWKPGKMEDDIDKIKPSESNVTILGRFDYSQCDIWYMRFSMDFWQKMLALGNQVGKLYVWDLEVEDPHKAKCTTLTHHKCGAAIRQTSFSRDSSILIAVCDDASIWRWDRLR
UniProt Q15022, whole entry partner: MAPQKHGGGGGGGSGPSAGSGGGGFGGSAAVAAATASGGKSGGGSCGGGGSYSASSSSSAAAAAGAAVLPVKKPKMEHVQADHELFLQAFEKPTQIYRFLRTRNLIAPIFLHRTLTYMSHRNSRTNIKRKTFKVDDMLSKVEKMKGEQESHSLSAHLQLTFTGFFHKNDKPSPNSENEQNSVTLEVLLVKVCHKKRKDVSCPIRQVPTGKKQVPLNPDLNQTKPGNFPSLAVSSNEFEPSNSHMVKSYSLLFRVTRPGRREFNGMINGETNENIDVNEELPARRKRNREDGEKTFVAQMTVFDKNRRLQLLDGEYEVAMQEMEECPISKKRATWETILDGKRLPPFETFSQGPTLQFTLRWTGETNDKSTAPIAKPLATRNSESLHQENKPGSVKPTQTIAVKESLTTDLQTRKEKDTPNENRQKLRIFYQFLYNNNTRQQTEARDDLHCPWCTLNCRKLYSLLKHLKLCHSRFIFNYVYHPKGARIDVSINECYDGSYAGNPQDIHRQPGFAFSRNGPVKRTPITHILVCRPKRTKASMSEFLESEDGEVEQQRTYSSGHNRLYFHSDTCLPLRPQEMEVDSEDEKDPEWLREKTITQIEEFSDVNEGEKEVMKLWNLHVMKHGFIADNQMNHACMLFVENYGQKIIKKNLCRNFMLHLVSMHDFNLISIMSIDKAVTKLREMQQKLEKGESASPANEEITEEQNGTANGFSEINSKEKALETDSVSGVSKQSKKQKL

Assays:
EZH2 Y641F = EZH2 Y641F (Homo sapiens (Human), UniProt Q15910, Y641F); test: In vitro methyltransferase activity test (LANCE Ultra); conditions: read-out: EZH2 Y641F IC50; Recombinant PRC2 (EZH2-Y641F), 2.5 μM SAM/250 nM H3(1-50)K27me1, 3 hours, room temperature
Pfeiffer cells = test: Cell proliferation test (Cell counting kit-8, 6 days); format: cell-based; conditions: read-out: Pfeiffer IC50; Pfeiffer (CRL-2632) cells, culture for 6 days, viable cells by Cell counting kit-8
Protocol: The used cell lines Pfeiffer (CRL-2632), suDHL-6 (CRL-2959) and suDHL-10 (CRL-2963) were purchased from American Type Culture Collection (ATCC). All cell lines were cultured in RPMI-1640 medium (Gibco) containing 10% fetal bovine serum (Gibco). The cultured cells were collected by centrifugation and the cell density was measured on a CounterStar counter. Appropriate number of cells were then seeded in a 96-well culture plate and incubated overnight. Compounds to be tested were diluted by 8 gradient points in a ratio of 1:3 and added into the corresponding wells. After continuing to culture for 6 days, the number of viable cells was measured with Cell counting kit-8, and the absorbance value was read on Tecan infinite pro. The IC50 was calculated by fitting a four-parameter model in the XLfit software.

SMILES | IC50 (EZH2 Y641F) | IC50 (Pfeiffer cells)
C=CCC1(S(=O)(=O)n2cc(C)c3c(C(=O)NCc4c(OC)cc(C)[nH]c4=O)cc(-c4ccc(CN5CCOCC5)cc4)cc32)CC1 | 8 nM | 142 nM
C=CCC1(S(=O)(=O)n2cc(C)c3c(C(=O)NCc4c(OC)cc(C)[nH]c4=O)cc(N4CCN(CC(F)(F)F)CC4)cc32)CC1 | 27 nM | 200 nM
C=CCC1(S(=O)(=O)n2cc(C)c3c(C(=O)NCc4c(OC)cc(C)[nH]c4=O)cc(-c4cncc(F)c4)cc32)CC1 | 31 nM | 180 nM
C=CCC1(S(=O)(=O)n2cc(C)c3c(C(=O)NCc4c(OC)cc(C)[nH]c4=O)cc(-c4ccc(N(C)C)nc4)cc32)CC1 | 31 nM | 64 nM
C=CCC1(S(=O)(=O)n2cc(C)c3c(C(=O)NCc4c(OC)cc(C)[nH]c4=O)cc(-c4ccc(CN5CCOCC5)nc4)cc32)CC1 | 10 nM | 129 nM
C=CCC1(S(=O)(=O)n2cc(C)c3c(C(=O)NCc4c(C)cc(C)[nH]c4=O)cc(-c4cnc(N5CCN(C(C)C)CC5)nc4)cc32)CC1 | 15 nM | 130 nM
C=CCC1(S(=O)(=O)n2cc(C)c3c(C(=O)NCc4c(OC)cc(C)[nH]c4=O)cc(N4CCN(CC)CC4)cc32)CC1 | 15 nM | 65 nM
C=CCC1(S(=O)(=O)n2cc(C)c3c(C(=O)NCc4c(Cl)cc(C)[nH]c4=O)cc(-c4ccc(N5CCN(C)CC5)nc4)cc32)CC1 | 32 nM | 87 nM
C=CCC1(S(=O)(=O)n2cc(C)c3c(C(=O)NCc4c(OC)cc(C)[nH]c4=O)cc(-c4ccnc(N5CCN(C)CC5)c4)cc32)CC1 | 33 nM | 
C=CCC1(S(=O)(=O)n2cc(C)c3c(C(=O)NCc4c(OC)cc(C)[nH]c4=O)cc(-c4ccc(N5CCN(C)CC5)cc4)cc32)CC1 | 9 nM | 18 nM
C=CCC1(S(=O)(=O)n2cc(C)c3c(C(=O)NCc4c(C)cc(C)[nH]c4=O)cc(-c4ccc(N5CCN(CC(F)(F)F)CC5)nc4)cc32)CC1 | 35 nM | 49 nM
C=CCC1(S(=O)(=O)n2cc(C)c3c(C(=O)NCc4c(OC(C)C)cc(C)[nH]c4=O)cc(-c4ccc(CN(C)C)cc4)cc32)CC1 | 45 nM | 242 nM
C=CCC1(S(=O)(=O)n2cc(C)c3c(C(=O)NCc4c(OC)cc(C)[nH]c4=O)cc(-c4ccc(CN(C)C)nc4)cc32)CC1 | 17 nM | 99 nM
C=CCC1(S(=O)(=O)n2cc(C)c3c(C(=O)NCc4c(OC)cc(C)[nH]c4=O)cc(-c4cccnc4)cc32)CC1 | 24 nM | 66 nM
C=CCC1(S(=O)(=O)n2cc(C)c3c(C(=O)NCc4c(OC)cc(C)[nH]c4=O)cc(-c4cnc(N5CCOCC5)nc4)cc32)CC1 | 31 nM | 73 nM
C=CCC1(S(=O)(=O)n2cc(C)c3c(C(=O)NCc4c(OC)cc(C)[nH]c4=O)cc(N4CCC(N(C)C)CC4)cc32)CC1 | 27 nM | 
C=CCC1(S(=O)(=O)n2cc(C)c3c(C(=O)NCc4c(OC)cc(C)[nH]c4=O)cc(-c4cnc(N5CCN(C)CC5)nc4)cc32)CC1 | 21 nM | 12 nM
Cc1cc(C)c(CNC(=O)c2cc(-c3ccc(CN(C)C)cc3)cc3c2C(C)CN3S(=O)(=O)C(C)C)c(=O)[nH]1 (stereo not drawn) | 94 nM | 1050 nM
C=CCC1(S(=O)(=O)n2cc(C)c3c(C(=O)NCc4c(OC)cc(C)[nH]c4=O)cc(-c4ccc(N5CCNCC5)nc4)cc32)CC1 | 5 nM | 91 nM
C=CCCS(=O)(=O)n1cc(C)c2c(C(=O)NCc3c(C)cc(C)[nH]c3=O)cc(-c3ccc(N4CCN(C)CC4)nc3)cc21 | 145 nM | 1650 nM
C=CCC1(S(=O)(=O)n2cc(C)c3c(C(=O)NCc4c(CCC)cc(C)[nH]c4=O)cc(-c4ccc(N5CCN(C)CC5)nc4)cc32)CC1 | 12 nM | 262 nM
C=CCC1(S(=O)(=O)n2cc(C)c3c(C(=O)NCc4c(OC)cc(C)[nH]c4=O)cc(-c4ccc(N5CCN(CC(F)(F)F)CC5)nc4)cc32)CC1 | 21 nM | 27 nM
C=CCC1(S(=O)(=O)n2cc(C)c3c(C(=O)NCc4c(OC)cc(C)[nH]c4=O)cc(-c4cnc(N5CCNCC5)nc4)cc32)CC1 | 5 nM | 48 nM
C=CCC1(S(=O)(=O)n2cc(C)c3c(C(=O)NCc4c(OC(C)C)cc(C)[nH]c4=O)cc(-c4ccc(N5CCN(C)CC5)nc4)cc32)CC1 | 36 nM | 
C=CCC1(S(=O)(=O)n2cc(C)c3c(C(=O)NCc4c(OC)cc(C)[nH]c4=O)cc(/C=C/c4ccccn4)cc32)CC1 | 36 nM | 177 nM
C=CCC1(S(=O)(=O)n2cc(C)c3c(C(=O)NCc4c(OC)cc(C)[nH]c4=O)cc(N4CCN(C)C(C)C4)cc32)CC1 (stereo not drawn) | 23 nM | 209 nM
C=CCC1(S(=O)(=O)n2cc(C)c3c(C(=O)NCc4c(OC)cc(C)[nH]c4=O)cc(-c4cncnc4)cc32)CC1 | 43 nM | 72 nM
C=CCC1(S(=O)(=O)n2cc(C)c3c(C(=O)NCc4c(OC)cc(C)[nH]c4=O)cc(-c4cncc(N5CCN(C)CC5)c4)cc32)CC1 | 9 nM | 46 nM
C=CCC1(S(=O)(=O)n2cc(C)c3c(C(=O)NCc4c(OC)cc(C)[nH]c4=O)cc(-c4cn[nH]c4)cc32)CC1 | 37 nM | 
